Reference: publication PMC9492458, “Development and structure–activity relationships of tanshinones as selective 11β-hydroxysteroid dehydrogenase 1 inhibitors” (Natural Products and Bioprospecting, 2022)
pIC50: −log10 of the molar value.

Amino acid sequences for entries named in this document (tags omitted).
UniProt P50172, whole entry: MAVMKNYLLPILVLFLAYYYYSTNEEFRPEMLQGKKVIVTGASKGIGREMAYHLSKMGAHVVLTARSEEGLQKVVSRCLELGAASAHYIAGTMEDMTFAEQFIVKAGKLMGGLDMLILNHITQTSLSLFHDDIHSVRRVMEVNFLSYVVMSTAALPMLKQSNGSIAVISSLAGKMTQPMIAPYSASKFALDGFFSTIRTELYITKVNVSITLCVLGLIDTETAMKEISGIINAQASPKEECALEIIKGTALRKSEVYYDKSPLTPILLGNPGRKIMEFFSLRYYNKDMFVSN
UniProt P28845, whole entry: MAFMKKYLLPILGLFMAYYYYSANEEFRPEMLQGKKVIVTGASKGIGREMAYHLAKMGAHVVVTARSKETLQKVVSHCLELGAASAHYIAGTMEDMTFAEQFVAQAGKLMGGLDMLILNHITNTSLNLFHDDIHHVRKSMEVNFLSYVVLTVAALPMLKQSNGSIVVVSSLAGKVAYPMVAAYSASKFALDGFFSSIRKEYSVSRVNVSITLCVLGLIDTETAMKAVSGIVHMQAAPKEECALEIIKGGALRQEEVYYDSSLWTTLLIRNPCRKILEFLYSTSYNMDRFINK

Tests used:
[1] = target: mouse 11β-HSD1 (Mus musculus, UniProt P50172); assay: scintillation proximity assay (SPA), microsomes of HEK-293 cells transfected with mouse 11β-HSD1; details: read-out: Mouse (IC50) 11β-HSD1; Table 1, initial enzymatic assay; averages of two determinations
[2] = target: human 11β-HSD1 (Homo sapiens, UniProt P28845); assay: scintillation proximity assay (SPA), microsomes of HEK-293 cells transfected with human 11β-HSD1; details: read-out: Human (IC50) 11β-HSD1; Table 1, initial enzymatic assay; averages of two determinations

| Compound | pIC50 [1] | pIC50 [2] |
| --- | --- | --- |
| Cc1cccc2c3c(ccc12)C1=C(C(=O)C3=O)[C@@H](C)CO1 | 6.41 | 6.69 |
| Cc1cccc2c3c(ccc12)C(=O)C([C@@H](C)CO)=C(O)C3=O | 5.40 | 4.91 |
| CC(=O)C[C@]1(O)C(=O)C2=C(OC[C@@H]2C)c2ccc3c(C)cccc3c21 | 5.77 | 5.66 |
| Cc1coc2c1C(=O)C(=O)c1c-2ccc2c1CCC[C@]2(C)CO | 6.95 | 6.77 |
| Cc1coc2c1C(=O)C(=O)c1c-2ccc2c1CCCC2(C)O (stereo not shown) | 6.40 | 6.00 |
